Measurements reported in ChEMBL document CHEMBL1130417 (J Med Chem, 1997).

Sequences of proteins named here, by UniProt entry; tags and fusion partners are left off.
UniProt P32300, whole entry: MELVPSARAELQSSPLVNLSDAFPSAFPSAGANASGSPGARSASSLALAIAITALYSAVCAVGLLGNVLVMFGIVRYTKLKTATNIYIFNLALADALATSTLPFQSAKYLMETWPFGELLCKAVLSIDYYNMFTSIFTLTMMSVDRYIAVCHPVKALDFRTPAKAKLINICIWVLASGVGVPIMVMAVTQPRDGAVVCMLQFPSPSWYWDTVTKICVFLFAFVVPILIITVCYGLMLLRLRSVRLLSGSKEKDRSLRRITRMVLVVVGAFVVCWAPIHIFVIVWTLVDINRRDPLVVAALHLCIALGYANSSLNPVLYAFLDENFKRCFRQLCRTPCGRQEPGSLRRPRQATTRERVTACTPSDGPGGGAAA

Target: Delta-type opioid receptor (Mus musculus, UniProt P32300)
Experiment: Agonist activity was evaluated in guinea pig ileum (GPI) preparations at Opioid receptor delta 1
Format: functional, tissue-based

In the case of CC(NC(=O)[C@@H](N)Cc1ccc(O)cc1)C(=O)N[C@@H](Cc1ccccc1)C(=O)N[C@@H](CC(=O)O)C(=O)N[C@H](C(=O)N[C@H](C(=O)NCC(N)=O)C(C)C)C(C)C (single isomer, unassigned) [DELTORPHIN C], the IC50 is reported as 0.85 nM.
